# Experimental data as given in ChEMBL document CHEMBL2218924, “A broad activity screen in support of a chemogenomic map for kinase signalling research and drug discovery” (Biochem J, 2013).
# Amino acid sequences for entries named in this document (tags omitted). A change or cut given only in a name is not applied to a line headed by its entry.
# UniProt P51955: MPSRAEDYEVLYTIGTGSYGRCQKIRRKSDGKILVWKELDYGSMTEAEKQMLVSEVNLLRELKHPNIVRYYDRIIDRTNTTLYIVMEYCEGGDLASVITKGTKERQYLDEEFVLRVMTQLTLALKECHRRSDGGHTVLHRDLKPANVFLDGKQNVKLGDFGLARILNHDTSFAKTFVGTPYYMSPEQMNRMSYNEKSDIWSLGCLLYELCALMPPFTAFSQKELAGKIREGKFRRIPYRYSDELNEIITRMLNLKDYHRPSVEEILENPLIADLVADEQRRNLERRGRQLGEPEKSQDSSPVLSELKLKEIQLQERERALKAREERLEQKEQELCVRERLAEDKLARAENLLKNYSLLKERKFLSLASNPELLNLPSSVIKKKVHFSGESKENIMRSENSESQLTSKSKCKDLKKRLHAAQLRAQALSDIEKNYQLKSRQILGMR
# UniProt Q6PHR2: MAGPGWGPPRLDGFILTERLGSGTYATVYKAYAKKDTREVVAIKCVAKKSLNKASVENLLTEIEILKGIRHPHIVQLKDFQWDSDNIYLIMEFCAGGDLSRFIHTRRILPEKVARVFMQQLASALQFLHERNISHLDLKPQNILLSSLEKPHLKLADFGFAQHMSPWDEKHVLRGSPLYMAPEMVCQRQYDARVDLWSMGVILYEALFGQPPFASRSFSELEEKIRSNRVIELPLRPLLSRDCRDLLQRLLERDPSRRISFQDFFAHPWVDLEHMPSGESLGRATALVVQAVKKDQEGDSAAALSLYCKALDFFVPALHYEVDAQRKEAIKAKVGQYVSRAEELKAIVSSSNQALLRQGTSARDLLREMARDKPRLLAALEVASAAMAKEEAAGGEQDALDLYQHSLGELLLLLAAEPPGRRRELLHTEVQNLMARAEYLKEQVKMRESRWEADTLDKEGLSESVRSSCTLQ
# UniProt Q86Y07: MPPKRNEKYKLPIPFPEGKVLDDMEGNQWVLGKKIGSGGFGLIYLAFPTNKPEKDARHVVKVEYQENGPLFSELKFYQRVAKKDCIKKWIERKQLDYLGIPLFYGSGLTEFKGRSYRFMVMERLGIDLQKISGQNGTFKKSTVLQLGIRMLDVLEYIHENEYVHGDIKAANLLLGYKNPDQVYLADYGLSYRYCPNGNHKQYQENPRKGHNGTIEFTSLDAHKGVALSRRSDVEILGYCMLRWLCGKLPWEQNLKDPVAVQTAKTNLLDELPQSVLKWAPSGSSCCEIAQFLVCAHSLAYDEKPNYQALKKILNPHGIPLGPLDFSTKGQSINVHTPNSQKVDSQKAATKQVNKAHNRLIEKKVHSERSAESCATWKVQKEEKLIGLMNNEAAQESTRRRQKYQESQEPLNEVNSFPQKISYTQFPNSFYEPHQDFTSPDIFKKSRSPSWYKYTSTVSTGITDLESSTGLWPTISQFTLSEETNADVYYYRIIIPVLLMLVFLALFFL
# UniProt Q9Y3S1: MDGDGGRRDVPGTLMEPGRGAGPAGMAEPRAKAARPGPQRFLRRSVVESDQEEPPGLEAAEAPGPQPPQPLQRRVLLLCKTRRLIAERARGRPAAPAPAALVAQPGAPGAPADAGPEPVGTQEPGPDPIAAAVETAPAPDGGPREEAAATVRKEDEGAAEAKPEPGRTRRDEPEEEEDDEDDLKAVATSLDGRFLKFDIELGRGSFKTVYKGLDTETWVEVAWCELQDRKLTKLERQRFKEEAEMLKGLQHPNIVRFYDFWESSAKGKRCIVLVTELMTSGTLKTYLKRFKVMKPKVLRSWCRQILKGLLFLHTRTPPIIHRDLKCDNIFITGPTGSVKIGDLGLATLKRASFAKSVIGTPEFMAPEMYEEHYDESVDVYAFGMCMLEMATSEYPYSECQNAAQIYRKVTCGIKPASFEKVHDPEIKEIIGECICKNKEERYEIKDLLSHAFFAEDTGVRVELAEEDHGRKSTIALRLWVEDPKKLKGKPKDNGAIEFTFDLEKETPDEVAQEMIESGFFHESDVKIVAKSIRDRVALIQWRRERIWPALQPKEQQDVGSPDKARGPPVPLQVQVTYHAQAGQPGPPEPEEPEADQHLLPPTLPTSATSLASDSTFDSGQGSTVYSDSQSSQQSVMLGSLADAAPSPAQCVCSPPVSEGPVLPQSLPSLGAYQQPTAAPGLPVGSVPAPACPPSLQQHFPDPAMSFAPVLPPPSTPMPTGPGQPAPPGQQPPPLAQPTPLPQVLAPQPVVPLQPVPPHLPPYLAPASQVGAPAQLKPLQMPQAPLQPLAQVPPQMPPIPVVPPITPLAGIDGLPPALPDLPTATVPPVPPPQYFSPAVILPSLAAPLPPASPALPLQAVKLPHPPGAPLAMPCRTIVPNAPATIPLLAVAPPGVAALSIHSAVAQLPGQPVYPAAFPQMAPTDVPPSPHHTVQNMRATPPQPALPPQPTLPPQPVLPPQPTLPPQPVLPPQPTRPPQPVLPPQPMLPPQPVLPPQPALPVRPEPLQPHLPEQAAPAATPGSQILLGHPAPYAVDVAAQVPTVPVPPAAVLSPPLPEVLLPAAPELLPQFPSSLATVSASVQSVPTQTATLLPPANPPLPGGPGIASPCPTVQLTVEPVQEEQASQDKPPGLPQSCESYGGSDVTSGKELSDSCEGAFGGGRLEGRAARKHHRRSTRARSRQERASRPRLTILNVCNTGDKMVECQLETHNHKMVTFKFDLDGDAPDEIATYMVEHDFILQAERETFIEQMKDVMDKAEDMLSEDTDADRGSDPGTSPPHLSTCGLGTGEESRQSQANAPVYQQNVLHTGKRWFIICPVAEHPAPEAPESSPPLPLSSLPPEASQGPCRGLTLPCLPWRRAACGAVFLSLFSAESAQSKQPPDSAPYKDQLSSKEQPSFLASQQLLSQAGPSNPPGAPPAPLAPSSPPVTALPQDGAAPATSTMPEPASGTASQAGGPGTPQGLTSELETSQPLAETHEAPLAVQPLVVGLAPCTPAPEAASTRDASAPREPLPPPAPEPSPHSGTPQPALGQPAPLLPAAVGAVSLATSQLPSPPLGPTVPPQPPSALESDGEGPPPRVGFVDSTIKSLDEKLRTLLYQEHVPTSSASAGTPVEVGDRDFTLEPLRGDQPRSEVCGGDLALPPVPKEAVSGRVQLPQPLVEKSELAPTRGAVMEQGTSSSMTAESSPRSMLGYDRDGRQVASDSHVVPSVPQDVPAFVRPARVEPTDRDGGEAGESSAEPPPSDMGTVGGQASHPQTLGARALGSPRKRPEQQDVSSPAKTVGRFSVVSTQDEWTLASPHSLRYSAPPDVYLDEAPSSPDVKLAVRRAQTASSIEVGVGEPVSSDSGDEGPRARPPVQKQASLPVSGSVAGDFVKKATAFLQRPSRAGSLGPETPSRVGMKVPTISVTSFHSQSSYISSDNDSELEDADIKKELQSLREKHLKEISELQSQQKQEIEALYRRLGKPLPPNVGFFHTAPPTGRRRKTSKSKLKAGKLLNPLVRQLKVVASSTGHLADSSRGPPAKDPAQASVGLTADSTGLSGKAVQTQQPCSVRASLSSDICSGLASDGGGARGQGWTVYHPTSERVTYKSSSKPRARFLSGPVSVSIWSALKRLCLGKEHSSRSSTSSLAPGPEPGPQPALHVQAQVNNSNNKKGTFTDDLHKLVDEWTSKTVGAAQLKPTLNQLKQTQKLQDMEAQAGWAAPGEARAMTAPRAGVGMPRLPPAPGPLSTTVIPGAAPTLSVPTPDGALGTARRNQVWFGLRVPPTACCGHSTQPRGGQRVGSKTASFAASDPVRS
# UniProt Q8TDX7: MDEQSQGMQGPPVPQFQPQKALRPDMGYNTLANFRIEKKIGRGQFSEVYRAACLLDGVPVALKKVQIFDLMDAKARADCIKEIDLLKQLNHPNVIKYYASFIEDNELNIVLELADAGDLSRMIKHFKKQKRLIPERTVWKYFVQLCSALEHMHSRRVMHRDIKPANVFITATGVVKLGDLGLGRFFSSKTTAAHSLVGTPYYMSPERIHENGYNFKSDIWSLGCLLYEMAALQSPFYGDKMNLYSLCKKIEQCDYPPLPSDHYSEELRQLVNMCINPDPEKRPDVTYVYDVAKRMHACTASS
# UniProt Q9NQU5: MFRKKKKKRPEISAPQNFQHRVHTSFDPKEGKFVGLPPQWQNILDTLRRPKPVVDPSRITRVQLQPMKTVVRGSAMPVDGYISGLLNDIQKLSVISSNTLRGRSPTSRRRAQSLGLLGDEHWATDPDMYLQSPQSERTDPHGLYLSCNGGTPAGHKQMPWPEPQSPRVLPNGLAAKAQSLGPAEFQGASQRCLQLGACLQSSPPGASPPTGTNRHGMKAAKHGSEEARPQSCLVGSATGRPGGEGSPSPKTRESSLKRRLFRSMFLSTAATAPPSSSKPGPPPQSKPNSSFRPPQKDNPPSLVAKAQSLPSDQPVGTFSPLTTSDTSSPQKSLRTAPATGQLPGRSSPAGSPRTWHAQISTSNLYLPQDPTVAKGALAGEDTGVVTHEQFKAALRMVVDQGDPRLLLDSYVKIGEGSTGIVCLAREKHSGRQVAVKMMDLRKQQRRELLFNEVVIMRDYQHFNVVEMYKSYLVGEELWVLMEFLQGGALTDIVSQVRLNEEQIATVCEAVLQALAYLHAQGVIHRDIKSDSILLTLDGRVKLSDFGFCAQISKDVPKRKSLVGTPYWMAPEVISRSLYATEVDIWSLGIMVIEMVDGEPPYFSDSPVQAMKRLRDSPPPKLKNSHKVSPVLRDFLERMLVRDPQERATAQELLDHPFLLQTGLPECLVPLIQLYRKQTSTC
# UniProt O60285: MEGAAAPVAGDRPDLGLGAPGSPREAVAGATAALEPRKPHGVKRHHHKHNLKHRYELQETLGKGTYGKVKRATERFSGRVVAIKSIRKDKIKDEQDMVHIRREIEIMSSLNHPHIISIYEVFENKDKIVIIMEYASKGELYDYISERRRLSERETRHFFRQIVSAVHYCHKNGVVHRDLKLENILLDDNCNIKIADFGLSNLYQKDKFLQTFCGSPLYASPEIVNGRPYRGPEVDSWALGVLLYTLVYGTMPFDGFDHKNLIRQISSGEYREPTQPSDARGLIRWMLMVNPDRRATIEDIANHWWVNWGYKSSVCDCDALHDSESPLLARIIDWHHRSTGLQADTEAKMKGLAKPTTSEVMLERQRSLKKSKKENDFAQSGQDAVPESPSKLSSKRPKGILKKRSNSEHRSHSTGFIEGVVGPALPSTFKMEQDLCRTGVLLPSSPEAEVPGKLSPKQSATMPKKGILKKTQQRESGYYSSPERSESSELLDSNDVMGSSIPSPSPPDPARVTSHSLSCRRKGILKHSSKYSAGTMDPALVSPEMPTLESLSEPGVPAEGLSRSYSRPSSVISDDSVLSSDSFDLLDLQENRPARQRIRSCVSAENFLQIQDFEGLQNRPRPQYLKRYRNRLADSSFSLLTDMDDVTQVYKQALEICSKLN
# UniProt P16234: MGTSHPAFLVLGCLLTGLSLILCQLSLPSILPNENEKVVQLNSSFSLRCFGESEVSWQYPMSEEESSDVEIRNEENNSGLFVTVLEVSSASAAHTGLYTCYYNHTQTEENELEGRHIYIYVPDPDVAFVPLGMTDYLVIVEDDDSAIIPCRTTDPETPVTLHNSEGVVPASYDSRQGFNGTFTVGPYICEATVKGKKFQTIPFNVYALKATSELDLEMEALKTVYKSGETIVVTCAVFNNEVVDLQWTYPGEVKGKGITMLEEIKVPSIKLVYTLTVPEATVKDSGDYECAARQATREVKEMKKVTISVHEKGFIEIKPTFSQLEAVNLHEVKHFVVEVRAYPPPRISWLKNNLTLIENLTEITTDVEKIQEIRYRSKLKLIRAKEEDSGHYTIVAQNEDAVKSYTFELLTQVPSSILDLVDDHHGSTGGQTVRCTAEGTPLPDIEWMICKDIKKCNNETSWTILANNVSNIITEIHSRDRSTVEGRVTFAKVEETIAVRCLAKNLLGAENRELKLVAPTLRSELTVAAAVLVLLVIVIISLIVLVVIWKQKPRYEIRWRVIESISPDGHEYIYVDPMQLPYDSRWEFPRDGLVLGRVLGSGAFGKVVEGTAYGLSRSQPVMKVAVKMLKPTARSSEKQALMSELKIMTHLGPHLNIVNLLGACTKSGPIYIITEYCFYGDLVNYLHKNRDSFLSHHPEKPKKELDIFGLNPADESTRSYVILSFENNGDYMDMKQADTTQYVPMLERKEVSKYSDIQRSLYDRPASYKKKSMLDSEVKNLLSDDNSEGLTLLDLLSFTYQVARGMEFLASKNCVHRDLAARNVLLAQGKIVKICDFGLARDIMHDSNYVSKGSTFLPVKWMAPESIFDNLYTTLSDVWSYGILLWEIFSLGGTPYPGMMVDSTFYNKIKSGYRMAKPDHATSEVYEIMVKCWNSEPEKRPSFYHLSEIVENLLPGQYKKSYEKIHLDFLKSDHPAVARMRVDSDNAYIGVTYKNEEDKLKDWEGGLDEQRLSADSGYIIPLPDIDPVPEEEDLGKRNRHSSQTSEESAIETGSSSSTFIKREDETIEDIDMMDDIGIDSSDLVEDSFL
# For part of these data: This list holds what a sample rich in strong results left over. The rule behind the calls is not given here. The list shows a part of the results, in another mix than the full data.
# Legend:
# [1] = molecular target: MAP kinase-interacting serine/threonine-protein kinase 2 (Homo sapiens) (UniProt Q9HBH9); details: at 10 µM
# [2] = molecular target: Serine/threonine-protein kinase Nek2 (Homo sapiens) (UniProt P51955); details: at 10 µM
# [3] = molecular target: Testis-specific serine/threonine-protein kinase 1 (Homo sapiens) (UniProt Q9BXA7); details: at 1 µM
# [4] = molecular target: T1, Testis-specific serine/threonine-protein kinase 2 (Homo sapiens) (UniProt Q96PF2); details: at 1 µM
# T1 sequence (whole entry): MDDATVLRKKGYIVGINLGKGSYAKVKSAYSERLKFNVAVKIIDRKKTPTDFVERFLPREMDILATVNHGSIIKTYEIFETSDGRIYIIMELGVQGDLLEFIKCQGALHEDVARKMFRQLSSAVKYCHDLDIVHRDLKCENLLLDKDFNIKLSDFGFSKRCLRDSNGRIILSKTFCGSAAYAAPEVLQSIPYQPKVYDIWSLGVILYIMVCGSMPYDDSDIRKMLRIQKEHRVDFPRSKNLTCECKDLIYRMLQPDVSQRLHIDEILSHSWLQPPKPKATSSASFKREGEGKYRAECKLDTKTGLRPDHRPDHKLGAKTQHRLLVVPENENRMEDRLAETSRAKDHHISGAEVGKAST
# [5] = molecular target: T1, Testis-specific serine/threonine-protein kinase 2 (Homo sapiens); details: at 10 µM
# [6] = molecular target: Tyrosine-protein kinase TXK (Homo sapiens) (UniProt P42681); details: at 10 µM
# [7] = molecular target: T2, Serine/threonine-protein kinase ULK2 (Homo sapiens) (UniProt Q8IYT8); details: at 10 µM
# T2 sequence (whole entry): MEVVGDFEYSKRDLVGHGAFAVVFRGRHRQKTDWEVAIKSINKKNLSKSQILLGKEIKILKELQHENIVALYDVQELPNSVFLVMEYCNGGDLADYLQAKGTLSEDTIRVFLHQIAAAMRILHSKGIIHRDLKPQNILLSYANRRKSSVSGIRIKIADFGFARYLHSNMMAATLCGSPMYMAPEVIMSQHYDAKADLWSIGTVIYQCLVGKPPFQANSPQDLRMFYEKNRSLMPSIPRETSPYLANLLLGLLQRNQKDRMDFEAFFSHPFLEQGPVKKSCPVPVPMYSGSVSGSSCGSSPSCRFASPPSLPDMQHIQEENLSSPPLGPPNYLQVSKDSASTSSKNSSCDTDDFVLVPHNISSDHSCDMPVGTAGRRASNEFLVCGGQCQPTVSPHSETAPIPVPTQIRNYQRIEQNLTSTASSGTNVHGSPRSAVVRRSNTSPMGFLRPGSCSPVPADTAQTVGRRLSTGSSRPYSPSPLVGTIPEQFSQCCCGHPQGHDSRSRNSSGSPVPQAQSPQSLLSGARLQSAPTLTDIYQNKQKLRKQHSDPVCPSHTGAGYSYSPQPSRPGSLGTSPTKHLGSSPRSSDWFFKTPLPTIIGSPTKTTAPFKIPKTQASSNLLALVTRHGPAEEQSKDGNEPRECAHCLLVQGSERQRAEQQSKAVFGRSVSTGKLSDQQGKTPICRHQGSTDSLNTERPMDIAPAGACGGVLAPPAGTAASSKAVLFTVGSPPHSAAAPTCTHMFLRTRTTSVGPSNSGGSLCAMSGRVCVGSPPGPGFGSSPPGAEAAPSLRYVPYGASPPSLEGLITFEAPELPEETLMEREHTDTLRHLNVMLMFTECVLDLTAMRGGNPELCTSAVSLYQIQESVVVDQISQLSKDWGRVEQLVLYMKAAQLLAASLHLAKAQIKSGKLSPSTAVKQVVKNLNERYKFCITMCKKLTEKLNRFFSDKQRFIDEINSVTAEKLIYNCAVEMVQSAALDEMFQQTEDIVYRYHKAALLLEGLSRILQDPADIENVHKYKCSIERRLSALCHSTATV
# [8] = molecular target: Serine/threonine-protein kinase ULK3 (Homo sapiens) (UniProt Q6PHR2); details: at 1 µM
# [9] = molecular target: Serine/threonine-protein kinase VRK2 (Homo sapiens) (UniProt Q86Y07); details: at 10 µM
# [10] = molecular target: Serine/threonine-protein kinase WNK2 (Homo sapiens) (UniProt Q9Y3S1); details: at 1 µM;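 note: residual WNK2 kinase activity expressed as percent of uninhibited control, assayed in MOPS buffer at pH 7.0 containing EDTA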
# [11] = molecular target: Serine/threonine-protein kinase WNK3 (Homo sapiens) (UniProt Q9BYP7); details: at 1 µM
# [12] = molecular target: Serine/threonine-protein kinase WNK3 (Homo sapiens) (UniProt Q9BYP7); details: at 10 µM
# [13] = molecular target: Death-associated protein kinase 3 (Homo sapiens) (UniProt O43293); details: at 1 µM
# [14] = molecular target: Mast/stem cell growth factor receptor Kit (Homo sapiens) (UniProt P10721); details: at 10 µM
# [15] = molecular target: Proto-oncogene tyrosine-protein kinase Src (Homo sapiens) (UniProt P12931); details: at 1 µM
# [16] = molecular target: Proto-oncogene tyrosine-protein kinase Src (Homo sapiens) (UniProt P12931); details: at 10 µM
# [17] = molecular target: Serine/threonine-protein kinase mTOR (Homo sapiens) (UniProt P42345); details: at 1 µM
# [18] = molecular target: Serine/threonine-protein kinase mTOR (Homo sapiens) (UniProt P42345); details: at 10 µM
# [19] = molecular target: T3, Serine/threonine-protein kinase Nek6 (Homo sapiens) (UniProt Q9HC98); details: at 1 µM
# T3 sequence (whole entry): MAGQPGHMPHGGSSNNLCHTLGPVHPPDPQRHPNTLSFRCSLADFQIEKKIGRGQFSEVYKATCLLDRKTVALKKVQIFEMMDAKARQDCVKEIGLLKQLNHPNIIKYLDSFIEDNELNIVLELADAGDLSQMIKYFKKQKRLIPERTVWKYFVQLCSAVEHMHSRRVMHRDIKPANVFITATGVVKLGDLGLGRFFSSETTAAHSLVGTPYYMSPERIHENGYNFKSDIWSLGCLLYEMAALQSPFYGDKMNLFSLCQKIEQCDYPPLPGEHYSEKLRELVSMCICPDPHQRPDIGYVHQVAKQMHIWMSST
# [20] = molecular target: Serine/threonine-protein kinase Nek7 (Homo sapiens) (UniProt Q8TDX7); details: at 1 µM
# [21] = molecular target: Serine/threonine-protein kinase Nek7 (Homo sapiens) (UniProt Q8TDX7); details: at 10 µM
# [22] = molecular target: Serine/threonine-protein kinase PAK 4 (Homo sapiens) (UniProt O96013); details: at 1 µM
# [23] = molecular target: Serine/threonine-protein kinase PAK 5 (Homo sapiens) (UniProt Q9P286); details: at 1 µM
# [24] = molecular target: Serine/threonine-protein kinase PAK 6 (Homo sapiens) (UniProt Q9NQU5); details: at 10 µM
# [25] = molecular target: NUAK family SNF1-like kinase 1 (Homo sapiens) (UniProt O60285); details: at 1 µM
# [26] = molecular target: Platelet-derived growth factor receptor alpha (Homo sapiens) (UniProt P16234); details: at 10 µM
# [27] = molecular target: Platelet-derived growth factor receptor beta (Homo sapiens) (UniProt P09619); details: at 1 µM
structure (smiles),measurement,setting,value
O=C1NC(=O)C(c2cn(CCCn3ccnc3)c3ccccc23)=C1Nc1ccccc1,residual activity,[1],91%
same,residual activity,[2],97%
same,residual activity,[3],91%
same,residual activity,[4],99%
same,residual activity,[5],91%
same,residual activity,[6],91%
same,residual activity,[7],88%
same,residual activity,[8],92%
same,residual activity,[9],85%
same,residual activity,[10],inactive: 93%
same,residual activity,[11],inactive: 91%
same,residual activity,[12],86%
same,residual activity,[13],91%
same,residual activity,[14],96%
same,residual activity,[15],88%
same,residual activity,[16],88%
same,residual activity,[17],97%
same,residual activity,[18],103%
same,residual activity,[19],inactive: 92%
same,residual activity,[20],inactive: 117%
same,residual activity,[21],inactive: 92%
same,residual activity,[22],85%
same,residual activity,[23],90%
same,residual activity,[24],95%
same,residual activity,[25],91%
same,residual activity,[26],89%
same,residual activity,[27],96%
